Experimental findings from IntAct's records for PubMed 17317006 are described below.

To fix the notation:
B1: Glycogen synthase kinase-3 beta (Homo sapiens), P49841 (parent)
chain: MSGRPRTTSFAESCKPVQQPSAFGSMKVSRDKDGSKVTTVVATPGQGPDRPQEVSYTDTKVIGNGSFGVVYQAKLCDSGELVAIKKVLQDKRFKNRELQIMRKLDHCNIVRLRYFFYSSGEKKDEVYLNLVLDYVPETVYRVARHYSRAKQTLPVIYVKLYMYQLFRSLAYIHSFGICHRDIKPQNLLLDPDTAVLKLCDFGSAKQLVRGEPNVSYICSRYYRAPELIFGATDYTSSIDVWSAGCVLAELLLGQPIFPGDSGVDQLVEIIKVLGTPTREQIREMNPNYTEFKFPQIKAHPWTKVFRPRTPPEAIALCSRLLEYTPTARLTPLEACAHSFFDELRDPNVKLPNGRDTPALFNFTTQELSSNPPLATILIPPHARIQAAASTPTNATAASDANTGDRGQTNNAASASASNST

In the assay the parent is B1. As to conditions: with 1433z_human YWHAZ.
Consider S9A, for which the “effect of a mutation on the interaction” value is recorded as “disrupting interaction”.
